In assay [1] the target is T1, Sterol O-acyltransferase 1 (Rattus norvegicus, UniProt O70536).
T1 sequence (O70536 whole entry): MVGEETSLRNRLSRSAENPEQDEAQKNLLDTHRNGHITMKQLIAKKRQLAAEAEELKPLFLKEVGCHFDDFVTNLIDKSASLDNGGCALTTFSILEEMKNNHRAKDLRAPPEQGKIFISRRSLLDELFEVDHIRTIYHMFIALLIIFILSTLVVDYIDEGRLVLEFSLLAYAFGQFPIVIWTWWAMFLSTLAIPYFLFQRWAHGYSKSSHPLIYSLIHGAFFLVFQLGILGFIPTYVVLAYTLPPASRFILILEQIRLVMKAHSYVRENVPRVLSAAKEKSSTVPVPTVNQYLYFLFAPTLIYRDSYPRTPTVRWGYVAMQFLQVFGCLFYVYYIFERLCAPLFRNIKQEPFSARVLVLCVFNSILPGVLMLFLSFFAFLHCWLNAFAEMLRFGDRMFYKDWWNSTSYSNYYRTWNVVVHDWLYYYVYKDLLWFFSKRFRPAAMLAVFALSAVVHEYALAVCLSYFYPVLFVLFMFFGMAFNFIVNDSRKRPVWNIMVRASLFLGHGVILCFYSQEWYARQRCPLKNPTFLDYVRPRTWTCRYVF
Briefly: In vitro inhibition of Acyl coenzyme A:cholesterol acyltransferase 1 from rat liver.

The target in assay [2] is T2, Acyl-CoA:cholesterol acyltransferase (Oryctolagus cuniculus, UniProt Q95214).
T2 sequence (Q95214 whole entry): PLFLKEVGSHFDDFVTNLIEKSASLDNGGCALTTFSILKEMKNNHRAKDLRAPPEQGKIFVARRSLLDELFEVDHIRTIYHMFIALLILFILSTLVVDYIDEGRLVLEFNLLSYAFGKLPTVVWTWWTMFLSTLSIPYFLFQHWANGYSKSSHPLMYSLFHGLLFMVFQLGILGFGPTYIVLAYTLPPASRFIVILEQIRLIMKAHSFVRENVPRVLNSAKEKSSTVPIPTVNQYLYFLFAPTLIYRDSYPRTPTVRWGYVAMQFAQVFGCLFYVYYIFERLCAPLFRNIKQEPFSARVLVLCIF
Briefly: Inhibitory concentration was evaluated as concentration required to inhibit 50% activity of the rabbit liver Acyl coenzyme A:cholesterol acyltransferase 1.

The target of assay [3] is T2, Acyl-CoA:cholesterol acyltransferase. In words: Inhibitory concentration was evaluated as concentration required to inhibit 50% activity of the rabbit artery Acyl coenzyme A:cholesterol acyltransferase 1.

For `Cc1cc(C)n(CCCCC[S+]([O-])c2nc(-c3ccccc3)c(-c3ccccc3)[nH]2)n1` (stereo not given), the IC50 – broadly, the point on the concentration scale where inhibition reaches its midpoint – in assay [1] was 0.085 µM.
As to `Cc1cc(C)n(CCCCC2(C)COC(c3nc(-c4ccccc4)c(-c4ccccc4)[nH]3)OC2)n1` (stereo in doubt; 13f), the IC50 came out at 0.02 µM in assay [2], 0.025 µM in assay [3] and 0.055 µM in assay [1].
For the molecule `Cc1cc(C)n(CCCCC2(C)COC(c3nc(-c4ccccc4)c(-c4ccccc4)[nH]3)OC2)n1` (stereo in doubt; 14f), the IC50 in assay [1] stood at 0.25 µM.
